The values that follow come from ChEMBL document CHEMBL1140305, “Three-dimensional quantitative structure-activity relationship analyses of beta-lactam antibiotics and tripeptides as substrates of the mammalian H+/peptide cotransporter PEPT1” (J Med Chem, 2005).

In the assay the target is T1, Solute carrier family 15 member 1 (Homo sapiens, UniProt P46059).
T1 sequence (P46059 whole entry): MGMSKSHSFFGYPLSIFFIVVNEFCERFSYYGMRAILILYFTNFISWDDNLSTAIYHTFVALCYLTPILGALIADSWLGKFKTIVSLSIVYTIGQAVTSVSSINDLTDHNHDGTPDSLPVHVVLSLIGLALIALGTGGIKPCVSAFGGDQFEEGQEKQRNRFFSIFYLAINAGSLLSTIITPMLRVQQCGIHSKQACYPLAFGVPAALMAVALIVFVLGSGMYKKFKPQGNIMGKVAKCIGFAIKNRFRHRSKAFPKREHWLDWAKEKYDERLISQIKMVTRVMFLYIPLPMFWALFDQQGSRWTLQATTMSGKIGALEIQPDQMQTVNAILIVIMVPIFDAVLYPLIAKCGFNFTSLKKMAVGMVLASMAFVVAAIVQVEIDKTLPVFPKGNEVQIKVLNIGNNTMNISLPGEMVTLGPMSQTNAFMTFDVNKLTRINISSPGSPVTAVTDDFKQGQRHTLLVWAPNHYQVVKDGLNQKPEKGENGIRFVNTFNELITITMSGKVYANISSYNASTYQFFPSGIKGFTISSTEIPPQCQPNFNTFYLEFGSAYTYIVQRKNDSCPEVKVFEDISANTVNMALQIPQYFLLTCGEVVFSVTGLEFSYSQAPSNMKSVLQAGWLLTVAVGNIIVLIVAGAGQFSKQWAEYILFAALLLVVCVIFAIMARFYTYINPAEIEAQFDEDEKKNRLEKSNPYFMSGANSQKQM
Kind of assay: Binding affinity against membrane transport protein PEPT1 in human Caco-2 cells. The format is cell-based.
`C[C@H](N)C(=O)N[C@@H](Cc1ccccc1)C(=O)N1CCC[C@H]1C(=O)O` came in with a Ki of 110 µM.

In turn, `CC[C@H](C)[C@H](NC(=O)[C@@H]1CCCN1C(=O)[C@@H](N)CO)C(=O)O` gave a Ki of 170 µM.

Consider `CC[C@H](C)[C@H](N)C(=O)N1CCC[C@H]1C(=O)N1CCC[C@H]1C(=O)O`, for which affinity was put at a Ki of 280 µM.

For the compound `CC(C)[C@H](N)C(=O)N1CCC[C@H]1C(=O)N1CCC[C@H]1C(=O)O`, the affinity corresponds to a Ki of 100 µM.
